From US8440725B2, “Synergistic preparations based on mixtures of glycerol ether with aromatic alcohol for controlling mycobacteria” (Air Liquide Sante (International), priority 2002, dated 2013)

Details: room temperature

## CCCCC(CC)COCC(O)CO (stereo not shown) [SC 50, 1-(2-ethylhexyl) glycerol ether]
  soluble in water: up to 0.1 % by weight
